Test results as given in patent publication US11739090B2, “Substituted pyrazlo[3,4-c]pyridines as selective BTK kinase inhibitors” (JUMBO DRUG BANK CO., LTD., priority 2019, dated 2023).

Protein sequences, listed by entry. Tags and fused reporters are not part of them.
UniProt Q08881, whole entry: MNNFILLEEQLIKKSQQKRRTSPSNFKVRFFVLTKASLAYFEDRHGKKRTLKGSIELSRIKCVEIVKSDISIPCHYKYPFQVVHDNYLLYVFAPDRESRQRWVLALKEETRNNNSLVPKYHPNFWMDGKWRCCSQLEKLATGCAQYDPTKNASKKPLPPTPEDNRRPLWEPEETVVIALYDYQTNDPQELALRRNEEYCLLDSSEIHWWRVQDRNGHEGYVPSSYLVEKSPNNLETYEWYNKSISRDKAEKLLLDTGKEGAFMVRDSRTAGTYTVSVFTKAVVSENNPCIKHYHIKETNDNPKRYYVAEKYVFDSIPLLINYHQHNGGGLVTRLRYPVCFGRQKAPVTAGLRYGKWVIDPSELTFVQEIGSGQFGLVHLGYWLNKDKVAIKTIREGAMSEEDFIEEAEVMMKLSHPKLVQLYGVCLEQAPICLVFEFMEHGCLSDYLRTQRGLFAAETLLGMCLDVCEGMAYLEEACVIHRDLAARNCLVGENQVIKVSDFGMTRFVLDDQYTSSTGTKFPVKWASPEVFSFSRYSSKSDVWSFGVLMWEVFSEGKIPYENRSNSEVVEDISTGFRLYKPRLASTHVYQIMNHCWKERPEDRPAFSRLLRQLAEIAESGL
UniProt P42680, whole entry: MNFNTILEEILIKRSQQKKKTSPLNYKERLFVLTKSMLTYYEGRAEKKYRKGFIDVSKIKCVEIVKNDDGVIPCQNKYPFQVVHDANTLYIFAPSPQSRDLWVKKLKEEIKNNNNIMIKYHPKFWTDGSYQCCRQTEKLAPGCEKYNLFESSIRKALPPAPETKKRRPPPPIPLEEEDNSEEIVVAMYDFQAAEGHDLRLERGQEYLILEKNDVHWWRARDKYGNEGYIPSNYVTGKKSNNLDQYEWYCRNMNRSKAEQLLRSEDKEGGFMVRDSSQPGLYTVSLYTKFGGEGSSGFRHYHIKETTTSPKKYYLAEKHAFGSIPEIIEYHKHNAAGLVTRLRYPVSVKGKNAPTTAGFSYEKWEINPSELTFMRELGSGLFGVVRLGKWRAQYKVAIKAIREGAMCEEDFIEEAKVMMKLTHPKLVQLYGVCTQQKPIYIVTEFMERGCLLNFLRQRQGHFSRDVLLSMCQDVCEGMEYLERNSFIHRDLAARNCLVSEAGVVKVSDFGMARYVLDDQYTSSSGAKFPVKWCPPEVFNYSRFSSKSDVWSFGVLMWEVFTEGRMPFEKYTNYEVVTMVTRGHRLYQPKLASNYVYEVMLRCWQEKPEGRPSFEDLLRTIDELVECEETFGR

Key:
EGFR = EGFR (Homo sapiens (Human), UniProt P00533); assay: EGFR kinase test (33P-ATP filter binding); conditions: EGFR IC50 / BTK IC50 (first figure of the cell)
Method: (§1) Experimental Example 2: EGFR, ITK and TEC Kinase Test
(§2) buffer conditions: 20 mM HEPES (pH 7.5), 10 mM MgCl2, 1 mM EGTA, 0.02% Brij35, 0.02 mg/mL BSA, 0.1 mm Na3VO4, 2 mm DTT, 1% DMSO.
(§3) 2.1. Preparing an indicator substrate in a freshly prepared reaction buffer
(§4) 2.2. Delivering the desired cofactor to the above substrate solution
(§5) 2.3. Delivering the indicated kinase to the substrate solution and gently mixing same
(§6) 2.4. Delivering the compounds in DMSO to the kinase reaction mixture using acoustic technology (Echo550)
(§7) 2.5. Initiating the reaction (final concentration of ATP: 2 μM, 5 μM and 5 μM respectively) by delivering ^33P-ATP (final specific activity: 0.01 μci/μL) to the reaction mixture
(§8) 2.6. Incubating the kinase reaction at room temperature for 120 minutes
(§9) 2.7. Recording the reaction on P81 ion exchange paper (Whatman #3698-915)
(§10) 2.8. Washing the filter widely with 0.75% phosphoric acid
(§11) 2.9. Measuring the radioactive phosphorylated substrate remaining on the filter paper.
(§12) 3. Data analysis: the kinase activity data is expressed as the percentage of the remaining kinase activity in a test sample compared to a reaction with a carrier (dimethyl sulfoxide), and IC50 values and curve fitting are obtained using Prism4 software (GraphPad).

ITK = ITK (Homo sapiens (Human), UniProt Q08881); assay: ITK kinase test (33P-ATP filter binding); conditions: ITK IC50 / BTK IC50 (second figure of the cell)
Method: as §1, §2, §3, §4, §5, §6, §7, §8, §9, §10, §11, §12

TEC = TEC (Homo sapiens (Human), UniProt P42680); assay: TEC kinase test (33P-ATP filter binding); conditions: TEC IC50 / BTK IC50 (third figure of the cell)
Method: as §1, §2, §3, §4, §5, §6, §7, §8, §9, §10, §11, §12

[1] = Pharmacokinetic study in male CD-1 mice, intravenous and intragastric administration; format: in vivo
Text: Experimental Example 3: Pharmacokinetic Study of the Compounds of the Present Disclosure
1. Summary of pharmacokinetic study of the compounds of the present disclosure
1.1 Male CD-1 mice are used as test animals; the LC/MS/MS method is used to determine drug concentrations in plasma of the mice at different time points after intravenous and intragastric administration of test compounds. The pharmacokinetic behaviors of the compounds in mice are studied and the pharmacokinetic characteristics thereof are evaluated.
2.1 Experimental drugs: test compounds.
2.2 Experimental animals: 4 healthy adult male CD-1 mice, which were divided into 2 groups according to the principle of similar body weight, with 2 mice in each group. The animals were purchased from Shanghai Xipuer-Bikai Experimental Animal Co., Ltd.
An appropriate amount of samples were weighed; a solvent was added, and the mixture was stirred under sonication until a clear state was achieved, and then used for intravenous administration.
An appropriate amount of samples were weighed; a solvent was added; and the mixture was stirred under sonication until an approximately clear solution appeared, and then used for intragastric administration.
4 male CD-1 mice were divided into 2 groups, and fasted overnight. One of the groups was administered intravenously, and the other group was administered intragastrically.
After the test compounds were administered intravenously to male CD-1 mice, 30 μL of blood was collected at 0.0830, 0.25, 0.5, 1, 2, 4, 8 and 24 hours, respectively, and placed in commercial tubes containing EDTA-K2. After the test compounds were administered intragastrically to the other mice, 30 μL of blood was collected at 0.25, 0.5, 1, 2, 4, 6, 8 and 24 hours, respectively, and placed in commercial tubes containing EDTA-K2. The test tubes were centrifuged at 3000 g for 15 minutes to separate the plasma and stored at −60° C. 2 hours after administration, the animals were allowed to eat.
After intravenous and intragastric administration, the content of the compounds to be tested in plasma of the mice was determined by the LC/MS/MS method. The linear range of the method was from 2.00 to 6000 nmol/L; plasma samples were analyzed after treatment of precipitating proteins with acetonitrile.

[2] = test system: Human lymphoma TMD-8 cell subcutaneous xenograft; assay: Efficacy on human lymphoma TMD-8 cell subcutaneous xenograft models in CB-17 SCID mice; conditions: 50 mpk, once a day; TMD-8 xenograft in CB-17 SCID mice
Method: Experimental Example 4: Study on the Efficacy of the Compounds of the Present Disclosure on Human Lymphoma TMD-8 Cell Subcutaneous Xenograft Models in CB-17 SCID Mice
Experimental objective: the anti-tumor effects of the compounds were evaluated in this experiment by using TMD-8 cell subcutaneous xenograft models in CB-17 SCID mice.
Human lymphoma TMD-8 cells were cultured in a monolayer configuration in vitro, with culture conditions as follows: RMPJ-1640 medium supplemented with 10% fetal bovine serum, 100 U/mL penicillin and 100 μg/mL streptomycin, and 37° C., 5% CO2 incubator. Conventional digestion treatment with pancreatin-EDTA for passage was carried out twice a week. When the cell saturation was 80% to 90%, and the number reached the requirement, the cells were collected, counted and inoculated.
(2) Tumor Cell Inoculation
0.2 mL (1×10^7 cells) of TMD-8 cells (supplemented with matrigel in a volume ratio of 1:1) were subcutaneously inoculated on the right back of each mouse. The grouping and administration were started when the average tumor volume reached about 113 mm^3.
(3) Preparation of Test Samples
Compound group to be tested: a quantitative amount of the test compound was weighed in a brown dispensing bottle, and corresponding volume of a solvent was added. Then the mixture was vortexed to obtain a homogeneous suspension or clear solution.
Tumor diameter was measured twice a week with a vernier caliper. The calculation formula of tumor volume was V=0.5a×b^2, wherein a and b represent the long and short diameters of the tumor, respectively.
The anti-tumor efficacy of the compound was evaluated by TGI (%) or relative tumor proliferation rate T/C (%). Relative tumor proliferation rate T/C (%)=TRTV/CRTV×100% (TRTV: RTV of the treatment group; CRTV: RTV of the negative control group). The relative tumor volume (RTV) was calculated according to the results of the tumor measurement. The calculation formula was RTV=Vt/V0, wherein V0 was the average tumor volume measured at the beginning of the grouping and administration (i.e., D0), and Vt was the average tumor volume in a certain measurement. TRTV and CRTV were obtained from the data on the same day.
TGI (%) reflected the tumor growth inhibition rate. […]
At the end of the experiment, the tumor weight would be detected, and the percentage of T/Cweight would be calculated, wherein Tweight and Cweight represent the tumor weight of the administration group and the solvent control group, respectively.
statistical analysis was performed using SPSS software on the basis of RTV data at the end of the experiment. The comparison between three or more groups was analyzed by one-way ANOVA.

[3] = intragastric administration, 2 mg/kg
[4] = intravenous administration, 1 mg/kg

SMILES | The ratio of the activities of EGFR and BTK (EGFR) [fold] | The ratio of the activities of ITK and BTK (ITK) [fold] | The ratio of the activities of TEC and BTK (TEC) | Bioavailability F [1, 3] [%] | Curve area (0-inf) AUC0-inf [1, 3] [µM·h] | Curve area (0-t) AUC0-last [1, 3] [µM·h] | Half-life T1/2 [1, 3] [h] | Time to peak Tmax [1, 3] [h] | Apparent volume of distribution Vdss [1, 4] [L/kg] | Clearance rate Cl [1, 4] [mL/min/kg] | Curve area (0-inf) AUC0-inf [1, 4] [µM·h] | Curve area (0-t) AUC0-last [1, 4] [µM·h] | Half-life T1/2 [1, 4] [h] | Cmax ([1]; read-out: Blood drug concentration Cmax, intragastric administration, 2 mg/kg) [nM] | T/C (relative tumor proliferation rate) [2] [%] | TGI (%) [2] [%]
C=CC(=O)N1CCCC(c2nn(-c3ccc(Oc4c(F)cccc4F)cc3)c3cncc(F)c23)C1 (single isomer, unassigned) | 65 | 1690 | 7-fold | 23 | 1.777 | 1.259 | 4.88 | 0.25 | 0.954 | 13.3 | 2.72 | 2.697 | 1.21 | 400 | 7.7 | 102
C=CC(=O)N1CCCC(c2nn(-c3ccc(Oc4cccc(F)c4F)cc3)c3cncc(F)c23)C1 (single isomer, unassigned) | 383 | 2513 | 34-fold |  |  |  |  |  |  |  |  |  |  |  | 3.6 | 101
C=CC(=O)N1CCCC(c2nn(-c3ccc(Oc4ccccc4)cc3)c3c(N)nccc23)C1 (single isomer, unassigned) [Compound 7A] | 19 | 57 | 4.6-fold |  |  |  |  |  |  |  |  |  |  |  |  | 
C=CC(=O)N1CCCC(c2nn(-c3ccc(Oc4ccccc4)cc3)c3c(N)nccc23)C1 (single isomer, unassigned) [Compound 7B] | 35 | 1559 | 4-fold |  |  |  |  |  |  |  |  |  |  |  |  | 
